These are literature values, as cited in patent US20050202488A1, “Assay for therapies that inhibit expression of the cytosolic Cu/Zn superoxide dismutase (SOD1) gene” (The General Hospital Corporation, priority 2004, published 2005).

Each structure is given as a SMILES string.

The test system of the series is ALS patients. Particulars: cited from earlier work.

For the compound `Nc1nc2ccc(OC(F)(F)F)cc2s1` [Riluzole], the tolerability among patients result was “generally well tolerated”. Also, the “prolongation of tracheotomy-free survival” value (compared to placebo, clinical trials in America and Europe) is given as “about 15%”. The “improvement in survival overall” value (on average) was ~3 month.
